## Apparent affinities of Ab-14 variants for a coronavirus HR2 peptide

Source: Li et al. 2023 (doi:10.1038/s41467-023-39022-2), MIT Lincoln Laboratory and A-Alpha Bio; data file from the FLAb repository.

Binding partner: SARS-CoV-2 spike HR2 peptide, sequence PDVDLGDISGINAS.

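These sequences belong to a second round, designed from the earlier measurements on random variants of the parent. Group labels follow the data file (Ctrl: baseline library sampled from a position-specific scoring matrix, with some repeated check sequences; Rand: our label for a block that the file lists under HC and that is probably the random mutants of the ten best first-round binders; En: ensemble of fine-tuned language models; GP: Gaussian process model; GPLM: also part of the Gaussian process libraries; HC: hill climbing; Gen: genetic algorithm; Gibbs: Gibbs sampling; a sequence that several methods proposed may carry one label only). The assay is AlphaSeq: two haploid yeast populations carry antibody and antigen on their surface. After mating in shaken culture at 30 °C for 16 h, diploids were selected and their barcode pairs sequenced. Scores were corrected for input abundance and mapped to Kd with protein pairs of known affinity run in the same pool. The assay was run in six technical replicates.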

Ab-14 is the parent antibody, in scFv form: VH, then a 15-residue (Gly4Ser)3 linker, then VL. The light chain is unchanged in all variants.
VH: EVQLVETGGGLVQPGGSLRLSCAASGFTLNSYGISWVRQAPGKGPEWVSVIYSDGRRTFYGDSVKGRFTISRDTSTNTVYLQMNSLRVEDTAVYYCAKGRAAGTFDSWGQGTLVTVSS
VL: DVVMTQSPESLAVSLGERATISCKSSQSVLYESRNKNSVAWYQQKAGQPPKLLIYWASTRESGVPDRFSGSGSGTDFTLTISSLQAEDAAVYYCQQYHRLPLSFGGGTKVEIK

Variants are written as CDR1, CDR2 and CDR3 of the heavy chain (limits as in the source). Parent: GFTLNSYGIS, VIYSDGRRTFYGDSVK, GRAAGTFDS. The read-out is the apparent dissociation constant on a log10 scale (nM): the lower, the stronger. Averages over replicates are reported, and they cover detected replicates only. An entry "no signal" has no value in the source: the pair was not observed among the diploids in any replicate. This suggests poor binding but is not conclusive. The parent sequence was in this pool as ten entries: three were never detected, three once, and four in most replicates, with averages from 0.34 to 2.37. The authors' rule: three or more of the six replicates give a measured affinity, fewer mean a poor binder. Empty control strains, which show no peptide, gave a signal in 1% of pairings with all heavy chain designs; the median was 2.08 and 95% of these signals were weaker than 0.84. No background was subtracted. For each scFv, signals with the empty controls are counted beside the result. The range of this assay differs from that of the first round, and the authors advise against merging the two.

CDR-H1,CDR-H2,CDR-H3,group,"log10 Kd (nM), mean",detected,signal with controls
GFNLNSYGIS,VIYSDGRRTFYGDSVK,GQLAGTFDS,GP_HC,0.82,6 of 6,0 of 18
GFTLNSYGIS,VIYADGRRTFYGDSVK,GEAAGTFKY,GP_HC,0.25,5 of 6,0 of 18
GFTLNSYGIS,VIYADGRRTFYLDFVK,GRLAGTFDS,Ctrl,no signal,0 of 6,0 of 18
GFDLNEYGIS,VIYADGKRTAYVDSVK,GNNAGTFDI,En_Gen,-0.63,6 of 6,0 of 18
GKSLNEFGIS,VIYADGVRRAYADDVK,GNAAGHFIS,En_Gibbs,no signal,0 of 6,0 of 18
GFDLDEYGIS,VIYADGMRTAYSDSVK,GNVAGTFDV,En_Gen,-0.63,6 of 6,0 of 18
GFWLNSYGIS,VIYSDGRRTFYGDSVK,GRATGTFDS,Ctrl,no signal,0 of 6,0 of 18
GFSLNDYGIS,VIYSDGRRTFYTDSVK,GRAAGTFDS,GPLM_Gen,0.34,6 of 6,0 of 18
GFDLNEYGIS,VIYADGSRTVYADSVK,GNVAGTFDI,En_Gen,-0.48,6 of 6,0 of 18
GFWLNEYGIS,VIYSDGRRTFYGDPVK,GRTAGTFDS,GP_Gen,1.65,5 of 6,0 of 18
GFDLDEYGIS,VIYADGKRTAYSDSVK,GENAGTFDQ,En_Gen,0.56,6 of 6,0 of 18
GNNLEEYGIS,VIYADGMRTAAVDSVK,GDNSGTVVV,En_Gibbs,no signal,0 of 6,0 of 18
GFDLNEYGIS,VIYADGMRTAYSDKVK,GENAGTFDV,En_Gen,-1.32,6 of 6,0 of 18
GFQLNEYGIS,VIYSDGRRTFYADSVK,GRAAGTFDS,GPLM_Gen,0.22,6 of 6,0 of 18
GFTLNSYGIS,VIYADGRRTFYGDSVK,GRAAGTFYS,GP_HC,no signal,0 of 6,0 of 18
GFGLDEYGIS,VIYADGQRYAYKNSVK,GGDDITGLY,En_Gibbs,no signal,0 of 6,0 of 18
GKLLDEYGIS,VIYADGMRMVYTDSVK,GNLTDTLLV,En_Gibbs,no signal,0 of 6,0 of 18
GFNLDEYGIS,VIYADGKRTAYADSVK,GEVAGTFDI,En_Gen,-0.52,6 of 6,1 of 18
GFDLNEYGIS,VIYADGVRTSYADSVK,GNQAGTFDI,En_Gen,-0.37,6 of 6,0 of 18
GFDLNEYGIS,VIYADGIRTAYSDQVK,WMDGIVILF,En_Gibbs,no signal,0 of 6,0 of 18
GFNLEEYGIS,VIYADGMRTAYTDKVK,GGLDVQEGY,En_Gibbs,no signal,0 of 6,1 of 18
GFTLNEYGIS,VIYSDGWRTFYGDSVK,GRTAGTFDK,GP_Gen,2.07,6 of 6,1 of 18
GFTLNSYGIS,VIYSDGRRTFYGDSVR,GRAPGAFES,Ctrl,no signal,0 of 6,0 of 18
GFWLNDYGIS,VIYSDGRRTMYIDSVK,GRAAGTFDS,GPLM_HC,0.31,1 of 6,0 of 18
PFTLNDYGIS,VIYSDGRRTFYTDSVK,GRFAGTFDS,GP_HC,no signal,0 of 6,0 of 18
GEDLEEYGIS,VIYADGMRQYYVNNVK,GDINDVDDL,En_Gibbs,no signal,0 of 6,0 of 18
GYDLNEFGIS,VIYADGSRVAYADDVK,GNVAGHILS,En_Gibbs,no signal,0 of 6,0 of 18
GFDLNEYGIS,VIYADGRRTFYADSVK,GTNAGTILV,En_HC,no signal,0 of 6,0 of 18
GFDLESYGIS,VIYADGKRTFYSDSVK,GENAGTFDI,En_HC,-0.42,6 of 6,0 of 18
GFDLNEYGIS,VIYADGMRTAYTDSVK,GNQAGTFDQ,En_Gen,-0.35,5 of 6,0 of 18
GFDLNEYGIS,VIYADGRRTAYSDSVK,GEAGGTFDM,En_HC,0.07,6 of 6,0 of 18
GFELNSYGIS,VIYSDGRRTFYTDSVK,GRAAGTFDS,Ctrl,1.06,4 of 6,0 of 18
GFGLNDYGIS,VIYSDGRRTQYIDSVK,GRAAGTFDS,GPLM_HC,1.07,6 of 6,1 of 18
GFNIQEYGIS,VIYADGRRTAYAEPVK,GEDGGTIDT,En_Gibbs,no signal,0 of 6,0 of 18
GFDLNEYGIS,VIYADGRRTFYADSVK,GNQAGTFDL,En_HC,-0.91,6 of 6,0 of 18
GFSLNDYGIS,VIYSDGRRTFYGDSVK,GNAAGTFDS,GPLM_Gibbs,0.40,6 of 6,0 of 18
GFELNSYGIS,VIYSDGRRTFYADSVK,GRTAGTFDK,GP_Gen,1.71,6 of 6,0 of 18
GFDLDEYGIS,VIYADGMRTAYADKVK,GNTAGTFDV,En_Gen,0.07,6 of 6,0 of 18
GFTLNEYGIS,VIYSDGKRTFYGDSVK,GRTAGTFDS,GPLM_Gen,0.27,6 of 6,0 of 18
GFDLNEYGIS,VIYADGVRTYYADDVK,GNVAGTFDI,En_Gen,-0.22,6 of 6,0 of 18
GFHLNEYGIS,VIYSDGRRTFYGDSVK,GREAGTFDS,Ctrl,-0.02,6 of 6,0 of 18
GFTLNMYGIS,VIYSDGRRTFYGDSVK,GRAAGTFDW,Ctrl,1.05,4 of 6,0 of 18
GFTLNSYGIS,VIYSDGRRTFYGGSVK,GRVAGEFDM,Ctrl,no signal,0 of 6,0 of 18
GFALDKYGIS,VIYADGSRSVYADDVK,GMLGATFGV,En_Gibbs,1.46,6 of 6,0 of 18
GFKLNEYGIS,VIYSDGRRTFYGDSVK,GRHAGTFDS,GPLM_Gen,1.12,6 of 6,0 of 18
GFDLNSYGIS,VIYSDGRRTFYGDNVK,GRTAGTFDD,GP_Gibbs,0.14,6 of 6,0 of 18
GFDLNSYGIS,VIYSDGRRTFYGDRVK,GRTAGTFDD,GP_Gen,1.35,6 of 6,0 of 18
GFTLNSYGIS,VIYSDGRRTFTGDSVK,GDAAGTFDS,Ctrl,1.56,2 of 6,1 of 18
GFDIKEYGIS,VIYADGMRTAYKPKVK,GNNTWLVDV,En_Gibbs,no signal,0 of 6,0 of 18
GFTLNQYGID,VIYSDGRRTFYSDSAK,GRAAGFFDS,Rand,1.46,1 of 6,0 of 18
GFSLNSYGIS,VIYSDGRRTFYIDSVK,GNAAGTFDT,GPLM_Gibbs,0.66,6 of 6,0 of 18
GFSLNEYGIS,VIYSDGRRTFYADSVK,GRHAGTFDS,GPLM_Gen,0.19,6 of 6,1 of 18
GFDLEDYGIS,VIYADGRRTFYADSVK,GEVAGTFDL,En_HC,-0.35,6 of 6,0 of 18
GFTLNEYGIS,VIYSDGRRTFYGDSVK,GRAAGTFIL,GPLM_HC,no signal,0 of 6,0 of 18
GFDLDEYGIS,VIYADGVRTAYADSVK,GETAGTFDV,En_Gen,-0.29,6 of 6,0 of 18
GFTLNSYGIS,VIYSDGRRTFYQDSVK,GDAAGTFFT,Ctrl,no signal,0 of 6,0 of 18
GFTINSYGIS,VIYSDGYRTFYDDSVK,GQAASTFDS,Ctrl,no signal,0 of 6,0 of 18
GFSLNDYGIS,VIYSDGRRTFYGDEVK,GRTAGTFDA,GP_Gibbs,1.29,3 of 6,0 of 18
GFPLNEYGIS,VIYSDGRRTFYGDSVK,GREAGTFDT,GP_Gen,-0.06,6 of 6,0 of 18
GFTLNEYGIS,VIYSDGHRTFYSDSVK,GRAAGKFDS,GP_HC,no signal,0 of 6,0 of 18
GFNLNSYGIS,VIYSDGRRTFYTDSVK,GQLAGTFDS,GP_HC,0.74,6 of 6,0 of 18
GFTLNSYGSS,VIYSDGRRTFYLDSVK,GRAAGTFDS,Ctrl,no signal,0 of 6,0 of 18
GFTLNDYGIS,VIYSDGRRTWYMDSVK,GRAAGTFDS,GP_HC,1.46,3 of 6,1 of 18

The last 8 entries again:

| CDR-H1 | CDR-H2 | CDR-H3 | group | log10 Kd (nM), mean | detected | signal with controls |
|---|---|---|---|---|---|---|
| GFTLNSYGIS | VIYSDGRRTFYQDSVK | GDAAGTFFT | Ctrl | no signal | 0 of 6 | 0 of 18 |
| GFTINSYGIS | VIYSDGYRTFYDDSVK | GQAASTFDS | Ctrl | no signal | 0 of 6 | 0 of 18 |
| GFSLNDYGIS | VIYSDGRRTFYGDEVK | GRTAGTFDA | GP_Gibbs | 1.29 | 3 of 6 | 0 of 18 |
| GFPLNEYGIS | VIYSDGRRTFYGDSVK | GREAGTFDT | GP_Gen | -0.06 | 6 of 6 | 0 of 18 |
| GFTLNEYGIS | VIYSDGHRTFYSDSVK | GRAAGKFDS | GP_HC | no signal | 0 of 6 | 0 of 18 |
| GFNLNSYGIS | VIYSDGRRTFYTDSVK | GQLAGTFDS | GP_HC | 0.74 | 6 of 6 | 0 of 18 |
| GFTLNSYGSS | VIYSDGRRTFYLDSVK | GRAAGTFDS | Ctrl | no signal | 0 of 6 | 0 of 18 |
| GFTLNDYGIS | VIYSDGRRTWYMDSVK | GRAAGTFDS | GP_HC | 1.46 | 3 of 6 | 1 of 18 |